Many of the other results were omitted from the sample, so hits are more common in it than they were.
GIV-Gai inh – inhibitors of GIV GBA-motif binding to rat Galpha-i3; percent of control (FP), % (concentration not given with the values); AID 1224905; Galpha-i3/FITC-GIV peptide fluorescence polarization, 90 min; stronger effect = lower value; scaled: aluminum fluoride 0%, vehicle 100%; 210,000 compounds, 0.42% hits; P08753;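 active means replicate mean at 85% of control or lower, very high polarization wells dropped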;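 further: wells of about 15 µL received 100 nL stock; the first replicate is given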
HCMV NEC inh – inhibitors of HCMV UL50-UL53 nuclear egress complex interaction; HTRF UL50-UL53 interaction, normalized percent inhibition; inhibition, % (no concentration beside the values); 0.15% of 190,000 active; AID 1918969; in the data active = inhibition above about 27%, passing the limit was not always enough
The depositor's hits bear a star.

What do the screens show for `CN(C)c1ccc(C2=CC(C3CC3)=C(C#N)C(=C(C#N)C#N)N2)cc1`?
GIV-Gai inh: 105; HCMV NEC inh: 11

Results for COc1ccc(C2=CC(C3CC3)=C(C#N)C(=C(C#N)C#N)N2)cc1 ?
GIV-Gai inh: 65*; HCMV NEC inh: -65

What do the screens show for `CC(C)NC(=O)c1cn2c3c(ccc(Cl)c3c1=O)OC(C)C2` (stereo not given)?
GIV-Gai inh: 101; HCMV NEC inh: 33

How did CNC(=O)c1cn2c3c(ccc(Cl)c3c1=O)OC(C)C2 (stereo not given) do in these assays?
GIV-Gai inh: 110; HCMV NEC inh: 50*

What do the screens show for `CC(C)C(=O)N1C2=C(C(=O)c3ccccc32)C(c2ccc(Cl)cc2)c2c1n(C)c(=O)n(C)c2=O` (stereo not given)?
GIV-Gai inh: 100

What do the screens show for `CC(C)OC1(c2ccccc2)OC(=O)c2ccccc21` (stereo not given)?
GIV-Gai inh: 100

How did CC(C)OC1(O)C(=O)c2ccccc2C(=O)C1(O)OC(C)C (stereo not given) do in these assays?
HCMV NEC inh: 99*

Results for CCOc1cc(OCC)c2c3c(c(=O)oc2c1)CCC3 ?
HCMV NEC inh: 0

What do the screens show for `CC(C)c1ccc(S(=O)(=O)N2CCN(c3cc(=O)n4nc(-c5ccccc5)sc4n3)CC2)cc1`?
GIV-Gai inh: 101; HCMV NEC inh: 43*

What do the screens show for `Cc1ccccc1-c1nn2c(=O)cc(N3CCN(S(=O)(=O)Cc4ccccc4)CC3)nc2s1`?
GIV-Gai inh: 101; HCMV NEC inh: -9

Overlap with the part before: four compounds, then new ones.
How did CC(C)OC1(O)C(=O)c2ccccc2C(=O)C1(O)OC(C)C (stereo not given) do in these assays?
HCMV NEC inh: 99*

Results for CCOc1cc(OCC)c2c3c(c(=O)oc2c1)CCC3 ?
HCMV NEC inh: 0

What do the screens show for `CC(C)c1ccc(S(=O)(=O)N2CCN(c3cc(=O)n4nc(-c5ccccc5)sc4n3)CC2)cc1`?
GIV-Gai inh: 101; HCMV NEC inh: 43*

What do the screens show for `Cc1ccccc1-c1nn2c(=O)cc(N3CCN(S(=O)(=O)Cc4ccccc4)CC3)nc2s1`?
GIV-Gai inh: 101; HCMV NEC inh: -9

Results for CCOc1ccc(S(=O)(=O)N2CCN(c3cc(=O)n4nc(-c5ccccc5)sc4n3)CC2)cc1 ?
GIV-Gai inh: 101; HCMV NEC inh: 45*

How did Cc1cccc(-c2nn3c(=O)cc(N4CCN(S(=O)(=O)c5ccccc5C)CC4)nc3s2)c1 do in these assays?
GIV-Gai inh: 105; HCMV NEC inh: -5

Results for COc1ccc(C2CC(=O)C3=C(C2)NC(C)=C(C(=O)OC2CCCC2)C3c2cc(OC)ccc2OC)cc1 (stereo not given) ?
GIV-Gai inh: 108; HCMV NEC inh: 2

How did COc1cc(/C=C2\SC(=S)N(c3cccc(C(F)(F)F)c3)C2=O)ccc1O do in these assays?
HCMV NEC inh: 4

Results for C=CC(=O)Nc1sc2c(c1C(=O)OCC)CCCC2 ?
HCMV NEC inh: -4

Results for CCOC(=O)c1c(/N=C/C2C(=O)NC(=S)NC2=O)sc2c1CCCCC2 ?
GIV-Gai inh: -21*

Results for O=C(Nc1ccc(F)c(Cl)c1)Nc1nc(-c2ccccc2)cs1 ?
GIV-Gai inh: 95; HCMV NEC inh: -29

How did Cc1cccc(NC(=O)Nc2ccc(SCc3cc(=O)n4c(ncn4C(C)C)n3)cc2)c1 do in these assays?
GIV-Gai inh: 107; HCMV NEC inh: -29

What do the screens show for `CC(C)(C)/C(O)=C/c1nc2ccccc2oc1=O`?
GIV-Gai inh: 103

How did O=c1oc2ccc(Cl)cc2nc1/C=C(\O)c1ccco1 do in these assays?
GIV-Gai inh: 2.2*; HCMV NEC inh: -7

How did Cc1nc(C)c(/C(O)=C/c2nc3cc(Cl)ccc3oc2=O)o1 do in these assays?
GIV-Gai inh: 111

How did O=c1oc2ccccc2nc1/C=C(\O)c1ccccc1 do in these assays?
GIV-Gai inh: 46*; HCMV NEC inh: 4

Results for O=C(NCc1c(-c2ccccc2)nc2n1CCS2)c1ccccc1Br ?
GIV-Gai inh: 96

What do the screens show for `Cc1cccc(NC(=O)C(C)Sc2nc3c(c(=O)[nH]2)CCCC3)c1C` (stereo not given)?
GIV-Gai inh: 100; HCMV NEC inh: -21

Results for CCCn1c(/N=C/c2ccccc2Cl)nc2ccccc21 ?
HCMV NEC inh: 13

How did CCn1c(/N=C/c2ccccc2Cl)nc2ccccc21 do in these assays?
GIV-Gai inh: 104; HCMV NEC inh: 72*

How did O=S1(=O)CCC(N=Nc2c(O)[nH]c3ccc(Br)cc23)C1 (stereo not given) do in these assays?
HCMV NEC inh: -57

How did COc1ccccc1NC(=O)C1CCN(c2nn3cc(-c4ccc(C)cc4)nc3s2)CC1 do in these assays?
GIV-Gai inh: 103

How did CC(=O)N1N=C(c2ccccc2)CC1c1cc2cc3c(cc2nc1Cl)OCO3 (stereo not given) do in these assays?
GIV-Gai inh: 105; HCMV NEC inh: -23

Results for CCS(=O)(=O)N1N=C(c2ccccc2)CC1c1cc2cc3c(cc2nc1Cl)OCCO3 (stereo not given) ?
GIV-Gai inh: -53*

Results for Oc1ccc(C=Nc2ccc(Nc3ccccc3)cc2)c(O)c1 ?
GIV-Gai inh: 6.8*; HCMV NEC inh: 2

Results for Oc1ccc(C=Nc2cccc(C(F)(F)F)c2)c(O)c1 ?
GIV-Gai inh: 110; HCMV NEC inh: 8

Results for Nc1nc2c(s1)CCc1c-2cnn1-c1ccccc1 ?
HCMV NEC inh: 63*

What do the screens show for `Cc1c(-c2ccnc(N)n2)cnn1-c1ccccc1`?
GIV-Gai inh: 105; HCMV NEC inh: -24

Bioassay records deposited in PubChem BioAssay by ICCB-Longwood Screening Facility, Harvard Medical School.
